# Measured values as given in paper PMC7993833, “EDP-938, a novel nucleoprotein inhibitor of respiratory syncytial virus, demonstrates potent antiviral activities in vitro and in a non-human primate model” (PLoS Pathogens, 2021).
# Tests used:
# [1] = test system: various RSV strains; test: Impact of protein binding on anti-RSV activity; conditions: HSA 40 mg/mL or alpha-1-acid glycoprotein 0.9 mg/mL; range of RSV strains and cell types
# [2] = test system: RSV-A2; test: Immunofluorescence analysis of RSV inclusion bodies; conditions: HEp-2; RSV-A2 MOI 3; 1000 nM; 8 hpi; N-protein antibody
# [3] = test system: RSV-A2; test: Primary viral transcription after synchronized infection (RT-qPCR of N gene); conditions: HEp-2; RSV-A2 MOI 3; 1000 nM added at 0 hpi; 0-6 hpi
smiles,measurement,setting,value
O=C1Nc2ccccc2C(c2ccccc2)=N[C@@H]1Nc1nnc(-c2ncc(C(F)(F)F)cc2N2CCOCC2)o1 [EDP-938],shift in potency in the presence of human serum albumin or alpha-1-acid glycoprotein,[1],2- to 5 fold
same,RSV inclusion body formation,[2],the majority of the cells did not present inclusions
same,RSV primary transcription (positive sense N RNA),[3],transcription was inhibited with no significant increase above the background
